Literature values, collected in patent publication US5054434A, “Suppression of ammonia odors from animal wastes” (W. R. Grace & Co.-Conn., priority 1989, dated 1991).

Test system: rat
Details: cited from earlier work

**Q.** Which “Oral LD50” value does the source give for `C/C=C/C=C/C(=O)O` [Sorbic, sorbic] here?
**A.** Its value is 7,400 mg/kg.
